Source: PubChem BioAssay (Broad Institute)
Most compounds without a hit are left out; they make up all but 1.5% or so of the library.
PglD inh – C. jejuni PglD acetyltransferase inhibitors, primary screen, biochemical, DTNB colorimetric, single point | AID 602405, 2012 | UDP-N-acetylbacillosamine N-acetyltransferase PglD (Campylobacter jejuni) | inhibition, % at 12.5 µM | purified PglD enzyme, DTNB colorimetric CoA detection | actives 0.098% (n = 360,000); in the data active = inhibition above about 16%, passing the limit was not always enough
INS-1E GSIS act – GLuc luminescence reporter in INS-1E cells, primary screen for activators of glucose-dependent secretion of insulin; activation, % at 16.6 µM; AID 743287, 2014; actives 0.61% (n = 370,000); INS-1E GLuc reporter insulin secretion, 2-3 h;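 active = lowest replicate activation of at least 40%, so every replicate reaches that level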;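 also: 0% = median of neutral control wells and 100% = median of IBMX positive control wells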
RAD54 inh – inhibitors of human RAD54 branch migration, primary screen, biochemical, fluorescence, single point; DNA repair and recombination protein RAD54-like (Homo sapiens), Q92698; RAD54 Holliday junction branch migration, FAM/BHQ fluorescence; inhibition, % at 10.4 µM; actives 0.14% (n = 360,000); AID 602329, 2012;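 active = mean normalized replicate activity at least 40 and at least half of replicates scoring 40 or more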;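 also: 0% = median of neutral control wells and 100% = median of positive control wells; inhibitors cause a drop in the FAM fluorescence signal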
RAD52 inh – RAD52 DNA annealing inhibitors, primary screen, biochemical, FRET, single point, set 2; DNA repair protein RAD52 homolog (Homo sapiens), P43351; AID 651710, 2012; recombinant RAD52 DNA annealing, FRET fluorescence; inhibition, % at 18.7 µM; actives 0.46% (n = 360,000);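 active = every replicate showing at least 50% inhibition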
CASP6 VEID inh – human caspase-6 inhibitors, primary screen, biochemical, VEID-R110 fluorescence, single point, set 2. P55212. purified caspase-6, Z-VEID-R110 cleavage fluorescence. inhibition, % at 12.5 µM. actives 0.53% (n = 350,000);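 active = mean inhibition across replicates at least about 35%, with every replicate also reaching that limit, limit read from the data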;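 also: 0% = median of neutral control wells and 100% = no fluorescence left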
Yeast UUG start – modulators of start codon recognition fidelity in yeast; S. cerevisiae UUG-firefly luciferase reporter, luminescence/redox ratio; activity score, % at 18.7 µM; hit rate 0.13% among 350,000; AID 602363;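 active = replicate mean at a twofold rise or more, about +100% in these data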;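 note: firefly luciferase made from a UUG start codon reports start codon fidelity; reporter light over untreated wells divided by growth signal over untreated wells; some hits fall short of that in this replicate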
RAD52 DNA ctr – DNA-binding compounds via dye displacement, dose response, artefact control for RAD52 inhibitor project, biochemical, fluorescence polarization, cherry-pick | Salmon sperm DNA/acridine orange FP displacement | AID 652128, 2013 | actives 8% (n = 1,000) | shares compounds with RAD52 inh | AC50, µM;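 active = fitted half-maximal concentration for signal loss at or below twice the highest dose tested, in every separate run, actives reach about 64 µM in these data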
Active calls of the source: *; i = inactive; x = not tested or not shown.

Letters – A = PglD inh; B = INS-1E GSIS act; C = RAD54 inh; D = RAD52 inh; E = CASP6 VEID inh; F = Yeast UUG start; G = RAD52 DNA ctr
SMILES: COc1cc(-c2ccc(N3C(c4ccsc4)=Cc4ccc(F)cc4C3c3c[nH]c4ccc(C#N)cc34)cc2)cc(OC)c1OC (configuration not stated)
  A: x | B: -29 | C: x | D: 71* | E: 0 | F: x | G: i
SMILES: CCn1cc2nc(SCC(=O)Nc3ccc(OC)c(OC)c3)n(Cc3ccc(OC)cc3)c(=O)c2n1
  A: 4 | B: 38 | C: 0 | D: -18 | E: 1 | F: -1 | G: x
SMILES: O=C(CN1CCOCC1)NNc1c2ccccc2nc2ccccc12
  A: x | B: x | C: x | D: 15 | E: -1 | F: x | G: x
SMILES: C[N+]1(CC(=O)NNc2c3ccccc3nc3ccccc23)CCOCC1
  A: x | B: 0 | C: x | D: 101* | E: -3 | F: x | G: 9µM*
SMILES: C/C(=N\Nc1ccc(F)cc1F)c1ccccc1O
  A: 6 | B: x | C: 1 | D: 1 | E: -2 | F: -11 | G: x
SMILES: CC(C)c1ccc(CNc2nc(NCC3CC3)nc3ccsc23)cc1
  A: -1 | B: 14 | C: -3 | D: 71* | E: -1 | F: -3 | G: i
SMILES: COc1ccccc1CNc1nc(NCc2ccc(C(C)C)cc2)c2sccc2n1
  A: 4 | B: -11 | C: -5 | D: -11 | E: -3 | F: -8 | G: x
SMILES: Cc1ccc(C)n1-c1nnc(N2CCC(C(=O)NCCCN3CCN(C)CC3)CC2)s1
  A: -2 | B: 12 | C: -5 | D: 70* | E: -183 | F: -23 | G: i
SMILES: Cc1ccc(C)n1-c1nnc(N2CCC(C(=O)NCCCN3CC(C)CC(C)C3)CC2)s1 (configuration not stated)
  A: -4 | B: 5 | C: 10 | D: 44 | E: -106 | F: -27 | G: x
SMILES: CN(C)Cc1c(OC(=O)c2ccc(N)cc2)ccc2ccccc12
  A: -1 | B: -18 | C: -3 | D: 59* | E: 0 | F: x | G: i
SMILES: O=C(OCC#CCSc1nnc(-c2cccc3ccccc23)o1)c1ccc(F)cc1
  A: -3 | B: x | C: -1 | D: -14 | E: 1 | F: -20 | G: x
SMILES: COc1ccc(N2CCc3c(C)nc4c(OC)cc(OC)cc4c32)cc1
  A: x | B: 3 | C: x | D: 87* | E: 0 | F: x | G: i
SMILES: COc1ccc(N2CCc3c(C)nc4c(OC)cc(OC)cc4c32)c(OC)c1
  A: -4 | B: x | C: 44 | D: x | E: x | F: -7 | G: x
SMILES: COc1ccc(N2CCc3c(C)nc4c(OC)cccc4c32)cc1
  A: x | B: -4 | C: x | D: 52* | E: 4 | F: x | G: i
SMILES: CCCCCN=C(N)N/N=C/c1c[nH]c2ccc(OC)cc12
  A: -5 | B: x | C: 24 | D: 56* | E: x | F: -2 | G: i
SMILES: CCCOc1ccc(C(=O)N/N=C/c2c[nH]c3ccc(Br)cc23)cc1
  A: 4 | B: -12 | C: 14 | D: -4 | E: 1 | F: -9 | G: x
SMILES: COc1cc(C(=O)NC2CCN(C)CC2)ccc1Nc1ncc2c(n1)N(C1CCCC1)CCC(=O)N2C(C)C
  A: -2 | B: x | C: 37 | D: x | E: x | F: -8 | G: x
SMILES: COc1cc(C(=O)NC2CCN(C)CC2)ccc1Nc1ncc2c(n1)N(CCc1ccccc1)CCC(=O)N2C
  A: 4 | B: -19 | C: 33 | D: 81* | E: -32 | F: -7 | G: i
SMILES: Cc1cc(C)c2nc3nc(C)c(C)cc3c(N)c2c1
  A: x | B: 6 | C: x | D: 91* | E: -34 | F: x | G: 62µM*
SMILES: CNc1ccc(C=C2C=Cc3ccccc32)cc1
  A: x | B: -3 | C: x | D: -1 | E: 3 | F: x | G: x
SMILES: CN1CCN(c2nc3cc(C(F)(F)F)ccc3n3cccc23)CC1
  A: -2 | B: x | C: 40 | D: 67* | E: x | F: 2 | G: i
SMILES: O=C(Nc1cc(Cl)ccc1N1CCOCC1)c1cccnc1
  A: -4 | B: 21 | C: 2 | D: 0 | E: 4 | F: -11 | G: x
SMILES: CCN1CCN(c2cc(C)c3cc(NC(=O)CCC(=O)N4CCN(c5ccccc5)CC4)ccc3n2)CC1
  A: 3 | B: 4 | C: 7 | D: 19 | E: -8 | F: -4 | G: x
SMILES: CCOc1ccc(C(=O)Nc2ccc3nc(N4CCN(CC)CC4)cc(C)c3c2)cc1
  A: -2 | B: 13 | C: 5 | D: 11 | E: -5 | F: -3 | G: x
SMILES: CCN1CCN(c2cc(C)c3cc(NC(=O)c4cc(OC)cc(OC)c4)ccc3n2)CC1
  A: 3 | B: 16 | C: 34 | D: 55* | E: -27 | F: -18 | G: i

Three entries out of the list, arranged by length of the SMILES, ascending.
Letters – A = PglD inh; B = INS-1E GSIS act; C = RAD54 inh; D = RAD52 inh; E = CASP6 VEID inh; F = Yeast UUG start; G = RAD52 DNA ctr
SMILES: COc1ccccc1CNc1nc(NCc2ccc(C(C)C)cc2)c2sccc2n1
  A: 4 | B: -11 | C: -5 | D: -11 | E: -3 | F: -8 | G: x
SMILES: O=C(OCC#CCSc1nnc(-c2cccc3ccccc23)o1)c1ccc(F)cc1
  A: -3 | B: x | C: -1 | D: -14 | E: 1 | F: -20 | G: x
SMILES: COc1cc(-c2ccc(N3C(c4ccsc4)=Cc4ccc(F)cc4C3c3c[nH]c4ccc(C#N)cc34)cc2)cc(OC)c1OC (configuration not stated)
  A: x | B: -29 | C: x | D: 71* | E: 0 | F: x | G: i

Further compounds:
Letters – A = PglD inh; B = INS-1E GSIS act; C = RAD54 inh; D = RAD52 inh; E = CASP6 VEID inh; F = Yeast UUG start; G = RAD52 DNA ctr
SMILES: CCN1CCN(c2cc(C)c3cc(NC(=O)c4cnccn4)ccc3n2)CC1
  A: -3 | B: x | C: 47 | D: 59* | E: -12 | F: -6 | G: i
SMILES: O=C(C[C@H]1C[C@@H]2c3cc(NC(=O)Nc4ccccc4)ccc3O[C@@H]2[C@@H](CO)O1)NCC(F)(F)F
  A: 3 | B: -11 | C: -9 | D: -4 | E: 2 | F: 7 | G: x
SMILES: CCc1ccc(OCCNc2cc(N3CCNC(C)C3)ccc2[N+](=O)[O-])cc1 (configuration not stated)
  A: 6 | B: -38 | C: 4 | D: 11 | E: -8 | F: -8 | G: i
SMILES: O=C(C[C@@H]1C=C[C@@H](NC(=O)CCN2CCCCC2)[C@H](CO)O1)Nc1nccs1
  A: -2 | B: 5 | C: -8 | D: 11 | E: 2 | F: -4 | G: x
SMILES: O=C(CSc1nnc2ccc(-c3ccccn3)nn12)NCCc1ccccc1
  A: -2 | B: 16 | C: 3 | D: -7 | E: 0 | F: -18 | G: x
SMILES: Cc1ccc2cc(C#N)c(NCCNC(=S)NCCCN(C)C)nc2c1C
  A: x | B: 14 | C: x | D: 100* | E: -68 | F: x | G: i
SMILES: Cc1cc(C)c2nc(NCCCNC(=S)NCCCN(C)C)c(C#N)cc2c1
  A: x | B: 6 | C: x | D: 94* | E: -69 | F: x | G: i
SMILES: NCCCC[C@H]1CN=C(N)N1CCC12CC3CC(CC(C3)C1)C2
  A: -2 | B: 24 | C: 7 | D: 57* | E: -33 | F: -8 | G: i
SMILES: NCCCC[C@H]1CN=C(N)N1CCc1cccc2ccccc12
  A: 0 | B: 3 | C: 32 | D: 28 | E: -23 | F: -13 | G: x
SMILES: COc1ccc(Br)cc1CNC(=O)C1CCCN(S(=O)(=O)N2CCC(C)CC2)C1 (configuration not stated)
  A: -4 | B: 0 | C: -13 | D: -7 | E: 2 | F: -21 | G: x
SMILES: CCc1c(-c2ccccc2)ncn1Cc1cccc(-c2ccccc2)c1
  A: x | B: -31 | C: x | D: -14 | E: -8 | F: x | G: x
SMILES: CCc1c(C2CC2)ncn1Cc1cccc(-c2ccccc2)c1
  A: x | B: -6 | C: x | D: 78* | E: -26 | F: x | G: i
SMILES: CCNC(=O)/C(C#N)=C/c1c(N2CCCCCC2)nc2c(C)cccn2c1=O
  A: -6 | B: x | C: 3 | D: 95* | E: 5 | F: -10 | G: i
SMILES: CCNC(=O)/C(C#N)=C/c1c(N2CCN(c3ccccc3)CC2)nc2c(C)cccn2c1=O
  A: -11 | B: -2 | C: -7 | D: -19 | E: 3 | F: -12 | G: x
SMILES: CN(C)CCCNC(=O)c1ccc(/C=N/O)nc1
  A: 10 | B: 20 | C: 1 | D: -5 | E: -11 | F: -9 | G: x
SMILES: CCc1nc2ccc(C(=O)Nc3cc(-c4ccccc4)ccc3OC)cn2c1N(C)CCC(C)C
  A: -3 | B: x | C: 2 | D: -98 | E: -2 | F: -9 | G: x
SMILES: CCc1nc2ccc(C(=O)Nc3cc(-c4ccccc4)ccc3OC)cn2c1N(CCN(C)C)CC1CC1
  A: -3 | B: 0 | C: 18 | D: 63* | E: -14 | F: -2 | G: i
SMILES: COc1ccc2sc3cccc(NCCN(C)C)c3c(=O)c2c1
  A: x | B: 2 | C: x | D: 58* | E: 11 | F: x | G: 39µM*
SMILES: O=c1oc(-c2ccccc2Br)nc2ccccc12
  A: 1 | B: 2 | C: -4 | D: 102* | E: 0 | F: -15 | G: i
